This note sets out measurements from ChEMBL document CHEMBL5576124, “Discovery of an Exceptionally Orally Bioavailable and Potent HPK1 PROTAC with Enhancement of Antitumor Efficacy of Anti-PD-L1 Therapy” (J Med Chem, 2024).

This assay in a line: Selectivity ratio of IC50 for inhibition of HPK1 (unknown origin) to IC50 for inhibition of GLK (unknown origin).

In the case of `Cc1cc(-c2c[nH]c3ncc(-c4ccc(C5CCN(C6CN(c7ccc8c(c7)C(=O)N(C7CCC(=O)NC7=O)C8=O)C6)CC5)cc4)nc23)ccc1C(=O)N(C)C` (stereo unspecified), the Ratio IC50 came to 16.
